According to article PMC5303009, “Benzenesulphonamide inhibitors of the cytolytic protein perforin” (Bioorganic & Medicinal Chemistry Letters, 2017):

What was measured:
KHYG-1 NK cells = experiment: Toxicity to KHYG-1 NK cells (Trypan blue exclusion); format: cell-based, human; conditions: after 24 h, ± SEM
Protocol: The use of NK cells to secrete perforin rather than employing isolated recombinant protein is a more stringent test of a compound’s ability to block lytic activity, requiring the inhibitor to access the synaptic cleft between effector (NK) and target cells where perforin is released. In this assay, inhibitor is co-incubated with KHYG-1 NK cells in medium for 30 min at room temperature, ^51Cr-labelled target cells added and cell lysis evaluated after 4 h incubation at 37 °C by measuring ^51Cr release.
The toxicity assay was carried out in exactly the same manner as the killing assay above, but instead of adding the labelled K562 target cells, 100 μL of RPMI 0.1% BSA was added. Cells were incubated for 4 h at 37 °C and then washed ×3 in RPMI + 0.1% BSA. […] Trypan blue was added to each well. Viable (clear) cells and total (clear + blue) cells were counted, and the percentage of viable cells was calculated compared to DMSO treated cell control (% viability).

[1] = Microsome stability, mouse; format: in vitro ADME; conditions: sodium salt, mouse microsomes, 30 min

In the case of `CN1Cc2cc(-c3ccc(-c4cncc(NS(=O)(=O)c5ccc(F)cc5F)c4)s3)ccc2C1=O` [Compound 5], the “KHYG-1 viability (% at 20 μM)” value (KHYG-1 NK cells) is reported as 93 ± 3.3% and the “Microsome stability (% parent remaining), Mouse” value [1] is reported as 92%.
